Molecular target: EGFR (human) (UniProt P00533)
Details: huvec

Sequences of proteins named here, by UniProt entry; tags and fusion partners are left off.
UniProt P00533, whole entry, looked up: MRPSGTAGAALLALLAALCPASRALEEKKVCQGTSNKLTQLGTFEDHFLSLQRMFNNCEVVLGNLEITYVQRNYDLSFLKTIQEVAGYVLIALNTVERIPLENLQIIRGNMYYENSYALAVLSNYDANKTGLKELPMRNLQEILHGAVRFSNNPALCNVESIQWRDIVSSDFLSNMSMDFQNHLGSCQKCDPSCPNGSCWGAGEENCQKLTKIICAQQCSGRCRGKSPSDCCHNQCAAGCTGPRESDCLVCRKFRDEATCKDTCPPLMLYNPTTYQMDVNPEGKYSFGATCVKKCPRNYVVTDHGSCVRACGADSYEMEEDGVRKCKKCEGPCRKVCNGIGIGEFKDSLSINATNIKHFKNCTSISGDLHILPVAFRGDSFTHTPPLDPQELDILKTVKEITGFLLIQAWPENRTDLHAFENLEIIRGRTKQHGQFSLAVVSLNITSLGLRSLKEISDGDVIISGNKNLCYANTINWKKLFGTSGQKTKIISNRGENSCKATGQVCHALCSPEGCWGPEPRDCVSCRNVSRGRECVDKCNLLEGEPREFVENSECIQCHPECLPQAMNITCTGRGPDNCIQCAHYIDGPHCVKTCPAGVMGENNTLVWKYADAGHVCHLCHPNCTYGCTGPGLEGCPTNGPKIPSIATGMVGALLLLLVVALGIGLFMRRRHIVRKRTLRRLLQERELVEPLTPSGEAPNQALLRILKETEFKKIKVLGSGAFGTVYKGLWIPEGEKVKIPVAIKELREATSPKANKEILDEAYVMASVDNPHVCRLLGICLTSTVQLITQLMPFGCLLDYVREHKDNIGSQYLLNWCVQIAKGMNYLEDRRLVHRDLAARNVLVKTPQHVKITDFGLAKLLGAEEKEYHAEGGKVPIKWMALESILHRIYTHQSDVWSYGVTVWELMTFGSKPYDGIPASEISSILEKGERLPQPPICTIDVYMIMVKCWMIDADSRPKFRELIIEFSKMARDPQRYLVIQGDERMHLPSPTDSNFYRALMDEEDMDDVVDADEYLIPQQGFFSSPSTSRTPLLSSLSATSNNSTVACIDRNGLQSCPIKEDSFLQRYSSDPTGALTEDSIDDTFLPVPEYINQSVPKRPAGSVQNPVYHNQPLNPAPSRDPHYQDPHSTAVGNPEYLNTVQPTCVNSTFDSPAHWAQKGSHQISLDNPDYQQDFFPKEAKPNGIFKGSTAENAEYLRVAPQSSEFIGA

IC50 [nM]	Structure (SMILES)
80	COc1cc2c(Nc3ccc(Br)cc3F)ncnc2cc1OCCC1CCNCC1
200	COc1cc2c(Nc3ccc(Cl)cc3F)ncnc2cc1OCCCN1CCOCC1
